Source: patent publication US10287301B2 (Achillion Pharmaceuticals, Inc., priority 2015, dated 2019)

Amino acid sequences for entries named in this document (tags omitted). Residues count along the entry.
UniProt P00746, 26-253: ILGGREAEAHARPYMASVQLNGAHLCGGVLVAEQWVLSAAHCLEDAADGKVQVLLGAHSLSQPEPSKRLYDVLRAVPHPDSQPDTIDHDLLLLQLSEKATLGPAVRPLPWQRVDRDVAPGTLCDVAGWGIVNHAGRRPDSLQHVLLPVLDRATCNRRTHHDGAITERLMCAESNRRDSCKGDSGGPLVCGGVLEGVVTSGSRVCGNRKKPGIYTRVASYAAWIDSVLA

Target: Human Factor D (Homo sapiens (Human), UniProt P00746)
Assay: Human Factor D Assay
Assay type: biochemical
Details: read-out: IC50 (Stars)
Description: Human Factor D (purified from human serum, Complement Technology, Inc.) at 80 nM final concentration was incubated with test compound at various concentrations for 5 minutes at room temperature in 50 mM Tris, 1M NaCl, pH 7.5. A synthetic substrate Z-L-Lys-SBzl and DTNB (Ellman's reagent) are added to final concentrations of 100 μM each. […] IC50 values are calculated by nonlinear regression of complement Factor D reaction rates as a function of test compound concentration.

## (2S,4R)-1-(2-(3- acetyl-5-(2- methyl-3H- imidazo[4,5- b]pyridin-6-yl)- 1H-indazol-1- yl)acetyl)-N-(6- bromopyridin-2- fluoropyrrolidine- 2-carboxamide [Compound 347]
  IC50: < 1000 nM
